# According to ChEMBL document CHEMBL5532663, “Discovery of Potent and Selective Phosphatidylinositol 3-Phosphate 5-Kinase (PIKfyve) Inhibitors as Methuosis Inducers” (J Med Chem, 2024):
# Key:
# [1] = system: HeLa; assay: animal or person; details: Mus musculus, 240 h, read-out: TGI
# [2] = system: MDA-MB-231; assay: cells; details: Homo sapiens, MDA-MB-231, 24 h
# [3] = system: HeLa; assay: cells; details: Homo sapiens, 24 h
# [4] = in vivo; details: Balb/C, mouse, po, 50 mg/kg
# [5] = in vivo; details: Balb/C, mouse, po, 50 mg/kg; remark: listed apart in the source
# [6] = in vivo; details: Balb/C, mouse, po, 50 mg/kg; remark: listed apart in the source
# [7] = in vivo; details: Balb/C, mouse, iv, 10 mg/kg
# [8] = in vivo; details: Balb/C, mouse, po, 50 mg/kg; remark: listed apart in the source
# [9] = in vivo; details: Balb/C, mouse, po, 50 mg/kg; remark: listed apart in the source
# [10] = in vivo; details: Balb/C, mouse, iv, 10 mg/kg; remark: listed apart in the source
# [11] = system: HeLa; assay: animal or person; details: Mus musculus, po, 240 h, read-out: TGI
# [12] = system: HeLa; details: Homo sapiens, dose 50-800 nM, time 14.0 day
# [13] = system: MDA-MB-231; details: Homo sapiens, dose 50-800 nM, time 14.0 day
smiles,measurement,setting,value
Cc1ccc(NC(=O)c2cccc(C(F)(F)F)c2)cc1Nc1cc(-c2cccnc2)nc2[nH]ccc12,inhibition in vivo at 20 mg/kg,[1],53.8%
same,IC50,[2],780 nM
same,IC50,[3],1000 nM
Cc1ccc2oc(-c3cn([C@H]4CC[C@@H](N)CC4)c4ncnc(N)c34)cc2c1,CL/F at 24 h,[4],1.17 mL/min/kg
same,bioavailability at 24 h,[5],70.9%
same,Cmax at 24 h,[6],10300 µg/mL
same,clearance at 24 h,[7],4.5 mL/min/kg
same,AUC(0-t) at 24 h,[8],127 µg·h/mL
same,half-life at 24 h,[9],5.7 h
same,Vd at 24 h,[10],1.7 L/kg
same,inhibition in vivo at 20 mg/kg,[11],61.5%
Nc1ncnc2c1c(-c1cc3ccccc3o1)cn2[C@H]1CC[C@@H](N)CC1,inhibition,[12],Dose-Dependent Effect
same,inhibition,[13],Dose-Dependent Effect
